Consider one substance from patent US12104178B2, “DHFR tunable protein regulation” (Obsidian Therapeutics, Inc., priority 2017, dated 2024).

For assay [1], the system named is NK-92 cells. Put plainly: Cytokine dependent proliferation of NK-92, Jurkat and SupT1 cells. In kind it is cell-based. The following applies: 3 days. Here is the method:
The dependency of immune cells on cytokines for proliferation was tested in NK-92 cells and T cell lines Jurkat cells and SupT1 cells. Cells were seeded at 40,000 per well and cultured in the presence of IL2 or IL15 for 3 days. […] Thus, NK-92 cells depend on cytokines for survival.
The dependency of immune cells on cytokines for proliferation was tested in NK-92 cells (natural killer cell line) and T cell lines Jurkat cells and SupT1 cells. Cells were seeded at 40,000 per well and cultured in the presence of IL2 or IL15 for 3 days. The number of NK-92 cells decreased with time in the untreated cells. […] Thus, NK-92 cells depend on cytokines for survival.

In assay [2] the test system is NK-92 cells. The assay is described as follows: NK-92 activation markers with IL2 (Table 85). The class given is cell-based. As for the experimental part: The dependency of the NK-92 cells on cytokines for activation was tested. Cells were initially cultured for 3 days with IL2, following which cells were washed twice and cultured in media without IL2 for 7 hours. The cells were cultured for 18 hours in the presence of IL2 (100 μg/ml). NK-92 cell activation in response to cytokine treatment was evaluated by FACS analysis of a panel of markers whose increased expression is associated with NK activation. These include NKG2D, CD71, CD69; chemokine receptors such as CCR5, CXCR4, and CXCR3, Perform, Granzyme B and Interferon gamma (IFNg). Prior to FACS for IFNg, cells were cultured for 4 hours with Brefeldin A. IFNg levels were also measured in the media. NK cells respond to external stimuli such as cytokines in their environment through the phosphorylation of proteins JAK/STAT, ERK, and p38/MAPK pathways which are important for cell activation, signalling and differentiation pathways. The phosphorylation of AKT, STAT3 and STAT5 in response to cytokine addition was measured by FACS. Since phosphorylation events are transient NK-92 cells were treated with the cytokines for 15 or 60 minutes, prior to the analysis. The fold change in mean fluorescence intensities compared to untreated for IL2 treatment for select markers are presented in Table 85.

The next assay relates to T cells. The assay is described as follows: IL12/IL2 effect on T cell expansion and IFNgamma positive CD4+/CD8+ T cells. The class given is cell-based, human. The following applies: 14 days, CD3/CD28 stimulation. The text has this: The goal of the study was to determine the T cell stimulation regimen and dose of IL12 needed to maximize T cell persistence and T cell differentiation in vitro, to mimic an in vivo adoptive cell transfer therapy regimen. The study recapitulates the design of the adoptive cell therapy regimen wherein the T cells were initially exposed to the antigen in vitro which results in activation followed by a resting phase and finally in vivo transfer where the T cells encounter the antigen again. T cells were stimulated CD3/CD28 beads or soluble CD3/CD28 on day 0 and the CD3/CD28 stimulus was washed off at the end of 48 hours. Cells were treated with a dose of IL12 ranging from 0.01-1000 ng/mL. On day 9, the Th1 phenotype of the cells was evaluated by examining the frequency of IFNgamma positive CD4+ cells and CD8+ cells. […] On day 16, the Th1 phenotype was evaluated in both groups using FACS. […]
The effect of IL12 on T cell activation was measured by determining the frequency of IFNgamma positive CD4+ and CD8+ T cells. […] At day 9, cells were restimulated with soluble CD3/CD28 and the frequency of IFNgamma positive cells was determined by FACS. […] At day 16, the frequency of IFNgamma positive cells was measured. […] IFNgamma positive CD4 and CD8 cells were measured using FACS. […]

“IL2: cytokine added to NK-92 cells and T cells”: the NK-92 cell numbers result in the assay on NK-92 cells [1] was “increased cell numbers”. For the same substance, in the assay on NK-92 cells [2] (IL2 100 μg/ml, 18 h), the “Fold change in MFI vs untreated, CD69” value was 1.60; the “Fold change in MFI vs untreated, CXCR4” value is 3.56; the “Fold change in MFI vs untreated, Granzyme” value amounted to 1.62; the “Fold change in MFI vs untreated, IFNg (cellular)” value was found to be 1.15. In the assay with NK-92 cells [2] (IL2 100 μg/ml, 18 h), the “Fold change in MFI vs untreated, Perforin” value is recorded as 1.72 and the “Fold change vs untreated, IFNg (Supernatant)” value amounted to 7.43. Besides, in the assay with NK-92 cells [2] (IL2, 15 mins), the “Fold change in MFI vs untreated, pAKT” value was 1.23; the “Fold change in MFI vs untreated, pSTAT3” value stood at 1.19; the “Fold change in MFI vs untreated, pSTAT5” value is given as 1.90. In the assay with NK-92 cells [2] (IL2, 60 mins), the “Fold change in MFI vs untreated, pAKT” value is 1.34 and the “Fold change in MFI vs untreated, pSTAT3” value came to 1.38. The “Requirement for T cell expansion (FIG. 37A)” value in the assay on T cells is “required for T cell expansion”.
